Patent US20240307362A1 (priority 2019, published 2024)

Amino acid sequences for entries named in this document (tags omitted). Residues count along the entry.
UniProt O43683, 704-1085: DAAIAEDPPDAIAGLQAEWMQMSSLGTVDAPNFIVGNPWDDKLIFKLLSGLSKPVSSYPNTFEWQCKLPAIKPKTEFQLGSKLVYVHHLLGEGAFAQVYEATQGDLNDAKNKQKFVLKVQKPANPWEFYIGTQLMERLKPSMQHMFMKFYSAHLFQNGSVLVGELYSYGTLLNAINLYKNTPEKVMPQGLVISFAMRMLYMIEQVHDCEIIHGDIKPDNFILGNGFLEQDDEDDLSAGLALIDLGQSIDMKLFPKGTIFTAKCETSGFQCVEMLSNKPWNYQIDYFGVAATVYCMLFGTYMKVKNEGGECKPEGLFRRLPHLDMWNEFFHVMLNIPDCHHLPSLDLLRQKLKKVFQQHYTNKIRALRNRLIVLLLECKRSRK

Target: human Bub1 (Homo sapiens (Human), UniProt O43683)
Test: Bub1 high ATP kinase assay (TR-FRET)
Assay type: biochemical
Settings: read-out: Bub1 high ATP (2 mM) IC50; 2 mM ATP
Description: Bub1-inhibitory activity of compounds of the present invention at a high ATP concentration was quantified employing the Bub1 TR-FRET high ATP kinase assay as described in the following paragraphs.
N-terminally His6-tagged recombinant catalytic domain of human Bub1 (amino acids 704-1085), expressed in insect cells (Hi5) and purified by Ni-NTA affinity chromatography and subsequent size exclusion chromatography, was used as enzyme.

Row | SMILES | IC50 [µM]
1 | COc1c(Cl)cccc1Nc1c(-c2ccncc2OC[C@@H]2CCN2CC(F)(F)F)[nH]c2c1C(=O)NCC2 [Example 29, 3-(3-chloro-2-methoxyanilino)-2-(3-{[(2S)-1-(2,2,2-trifluoroethyl)azetidin-2-yl]methoxy}pyridin-4-yl)-1,5,6,7-tetrahydro-4H-pyrrolo[3,2-c]pyridin-4-one] | > 20
2 | COc1c(Cl)cccc1Nc1c(-c2ccncc2OC[C@@H]2CCN2C)[nH]c2c1C(=O)NCC2 [Example 27, 3-(3-chloro-2-methoxyanilino)-2-(3-{[(2S)-1-methylazetidin-2-yl]methoxy}pyridin-4-yl)-1,5,6,7-tetrahydro-4H-pyrrolo[3,2-c]pyridin-4-one] | 12.3
3 | COc1c(F)cccc1Nc1c(-c2ccncc2OC[C@H]2CCN2C)[nH]c2c1C(=O)NCC2 [Example 79, 3-(3-fluoro-2-methoxyanilino)-2-(3-{[(2R)-1-methylazetidin-2-yl]methoxy}pyridin-4-yl)-1,5,6,7-tetrahydro-4H-pyrrolo[3,2-c]pyridin-4-one] | > 20
4 | COc1c(Cl)cccc1Nc1c(-c2ccncc2OC[C@H]2CCN2CC(F)(F)F)[nH]c2c1C(=O)NCC2 [Example 30, 3-(3-chloro-2-methoxyanilino)-2-(3-{[(2R)-1-(2,2,2-trifluoroethyl)azetidin-2-yl]methoxy}pyridin-4-yl)-1,5,6,7-tetrahydro-4H-pyrrolo[3,2-c]pyridin-4-one] | > 20
5 | CCN1CC[C@H]1COc1cnccc1-c1[nH]c2c(c1Nc1cccc(Cl)c1OC)C(=O)NCC2 [Example 28, 3-(3-chloro-2-methoxyanilino)-2-(3-{[(2S)-1-ethylazetidin-2-yl]methoxy}pyridin-4-yl)-1,5,6,7-tetrahydro-4H-pyrrolo[3,2-c]pyridin-4-one] | > 20
